Laboratory results published in PubChem BioAssay (NCI).
Some tests of the compounds listed are not included; inactive here does not mean inactive elsewhere.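 Following 48 hours of exposure in 96-well plates, responses at five concentrations were used to interpolate endpoints linearly. The concentration for 50% growth inhibition is given as GI50.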

Key:
Assay in all cases: NCI tumour cell line growth inhibition, 48 h; in the data active means GI50 below about 0.43 µM; inactive means the rest
NCI-H226 lung = system: NCI-H226 lung
HOP-62 NSCLC = system: HOP-62 NSCLC
MDA-MB-231 breast = system: MDA-MB-231 breast
OVCAR-3 ovarian = system: OVCAR-3 ovarian
A549 NSCLC = system: A549 NSCLC
SK-MEL-28 melanoma = system: SK-MEL-28 melanoma
TK-10 renal = system: TK-10 renal
MCF7 breast = system: MCF7 breast
KM12 colon = system: KM12 colon
RXF 393 renal = system: RXF 393 renal
786-0 renal = system: 786-0 renal
PC-3 prostate = system: PC-3 prostate
OVCAR-8 ovarian = system: OVCAR-8 ovarian
CCRF-CEM leukemia = system: CCRF-CEM leukemia
RPMI-8226 leukemia = system: RPMI-8226 leukemia
HL-60(TB) leukemia = system: HL-60(TB) leukemia
MOLT-4 leukemia = system: MOLT-4 leukemia
NCI-H23 lung = system: NCI-H23 lung
SNB-75 CNS = system: SNB-75 CNS
MALME-3M melanoma = system: MALME-3M melanoma
SK-MEL-5 melanoma = system: SK-MEL-5 melanoma
SF-268 CNS = system: SF-268 CNS
M14 melanoma = system: M14 melanoma
K-562 leukemia = system: K-562 leukemia
HCC-2998 colon = system: HCC-2998 colon
COLO 205 colon = system: COLO 205 colon
NCI/ADR-RES ovarian = system: NCI/ADR-RES ovarian
SW-620 colon = system: SW-620 colon
SNB-19 CNS = system: SNB-19 CNS
UO-31 renal = system: UO-31 renal
IGROV1 ovarian = system: IGROV1 ovarian
HCT-116 colon = system: HCT-116 colon
U251 CNS = system: U251 CNS
LOX IMVI melanoma = system: LOX IMVI melanoma
T-47D breast = system: T-47D breast
SF-539 CNS = system: SF-539 CNS
ACHN renal = system: ACHN renal
DU-145 prostate = system: DU-145 prostate
SR leukemia = system: SR leukemia
SF-295 CNS = system: SF-295 CNS
UACC-62 melanoma = system: UACC-62 melanoma
CAKI-1 renal = system: CAKI-1 renal
MDA-N = system: MDA-N
HT29 colon = system: HT29 colon
SK-OV-3 ovarian = system: SK-OV-3 ovarian
OVCAR-5 ovarian = system: OVCAR-5 ovarian
SN12C renal = system: SN12C renal
HCT-15 colon = system: HCT-15 colon
NCI-H522 lung = system: NCI-H522 lung
EKVX NSCLC = system: EKVX NSCLC
UACC-257 melanoma = system: UACC-257 melanoma

Measured: GI50

CC(C)C(O)(C(=O)OCC1=CC2CCN1CC2)c1ccccc1 (stereo unspecified)
inactive: NCI-H226 lung > 100 µM | HOP-62 NSCLC > 100 µM | MDA-MB-231 breast > 100 µM | OVCAR-3 ovarian > 100 µM | A549 NSCLC > 100 µM | SK-MEL-28 melanoma > 100 µM | TK-10 renal > 100 µM | MCF7 breast > 100 µM | KM12 colon > 100 µM | RXF 393 renal > 100 µM | 786-0 renal > 100 µM | PC-3 prostate > 100 µM | OVCAR-8 ovarian > 100 µM | CCRF-CEM leukemia > 100 µM | RPMI-8226 leukemia > 100 µM | HL-60(TB) leukemia > 100 µM | MOLT-4 leukemia > 100 µM | NCI-H23 lung > 100 µM | SNB-75 CNS > 100 µM | MALME-3M melanoma > 100 µM | SK-MEL-5 melanoma > 100 µM | SF-268 CNS > 100 µM | M14 melanoma > 100 µM | K-562 leukemia > 100 µM | HCC-2998 colon > 100 µM | COLO 205 colon > 100 µM | NCI/ADR-RES ovarian > 100 µM | SW-620 colon > 100 µM | SNB-19 CNS > 100 µM | UO-31 renal > 100 µM | IGROV1 ovarian > 100 µM | HCT-116 colon > 100 µM | U251 CNS > 100 µM | LOX IMVI melanoma > 100 µM | T-47D breast > 100 µM | SF-539 CNS > 100 µM | ACHN renal > 100 µM | DU-145 prostate > 100 µM | SR leukemia > 100 µM | SF-295 CNS > 100 µM | UACC-62 melanoma > 100 µM | CAKI-1 renal > 100 µM | MDA-N > 100 µM | HT29 colon > 100 µM | SK-OV-3 ovarian > 100 µM | OVCAR-5 ovarian > 100 µM | SN12C renal > 100 µM | HCT-15 colon > 100 µM | NCI-H522 lung > 100 µM | EKVX NSCLC > 100 µM | UACC-257 melanoma > 100 µM
